Earlier results, collected in patent US20250099481A1, “BCL-2 INHIBITORS” (Newave Pharmaceutical Inc., priority 2022, published 2025).

Amino acid sequences for entries named in this document (tags omitted).
UniProt Q07820, whole entry: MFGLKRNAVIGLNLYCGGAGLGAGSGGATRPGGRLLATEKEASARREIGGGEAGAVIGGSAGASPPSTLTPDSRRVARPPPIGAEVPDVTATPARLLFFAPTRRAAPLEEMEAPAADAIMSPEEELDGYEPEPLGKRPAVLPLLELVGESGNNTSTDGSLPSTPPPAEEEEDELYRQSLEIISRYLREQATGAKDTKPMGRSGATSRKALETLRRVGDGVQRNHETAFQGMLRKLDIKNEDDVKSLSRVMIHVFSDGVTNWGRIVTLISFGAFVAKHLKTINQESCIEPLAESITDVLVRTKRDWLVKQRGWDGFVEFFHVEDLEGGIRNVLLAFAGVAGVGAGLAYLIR

Biological target: Mcl-1 (Homo sapiens, UniProt Q07820)

In the case of ABT-199, the “activity to Mcl-1” value is given as “no activity”.
